According to PubChem BioAssay AID720496 (National Center for Advancing Translational Sciences (NCATS), 2013):
Out of some 1,500 compounds screened, about 1,200 (80%) were called active. The set was probably picked from earlier hits. Only results without a clear call are listed here; the source files them as inconclusive. The call rests on the fitted dose curve; in most records, active means well fitted inhibition curve with a large enough effect; inconclusive means small, poorly fitted or top-dose-only effect, or another doubt; inactive means no such curve, though single readings can be large or run the other way.

The chains behind the UniProt entries cited, without tags or fusion partners. Where a name states a change or a piece, a line headed by the entry shows the natural chain unless it says otherwise.
UniProt Q9UNA4: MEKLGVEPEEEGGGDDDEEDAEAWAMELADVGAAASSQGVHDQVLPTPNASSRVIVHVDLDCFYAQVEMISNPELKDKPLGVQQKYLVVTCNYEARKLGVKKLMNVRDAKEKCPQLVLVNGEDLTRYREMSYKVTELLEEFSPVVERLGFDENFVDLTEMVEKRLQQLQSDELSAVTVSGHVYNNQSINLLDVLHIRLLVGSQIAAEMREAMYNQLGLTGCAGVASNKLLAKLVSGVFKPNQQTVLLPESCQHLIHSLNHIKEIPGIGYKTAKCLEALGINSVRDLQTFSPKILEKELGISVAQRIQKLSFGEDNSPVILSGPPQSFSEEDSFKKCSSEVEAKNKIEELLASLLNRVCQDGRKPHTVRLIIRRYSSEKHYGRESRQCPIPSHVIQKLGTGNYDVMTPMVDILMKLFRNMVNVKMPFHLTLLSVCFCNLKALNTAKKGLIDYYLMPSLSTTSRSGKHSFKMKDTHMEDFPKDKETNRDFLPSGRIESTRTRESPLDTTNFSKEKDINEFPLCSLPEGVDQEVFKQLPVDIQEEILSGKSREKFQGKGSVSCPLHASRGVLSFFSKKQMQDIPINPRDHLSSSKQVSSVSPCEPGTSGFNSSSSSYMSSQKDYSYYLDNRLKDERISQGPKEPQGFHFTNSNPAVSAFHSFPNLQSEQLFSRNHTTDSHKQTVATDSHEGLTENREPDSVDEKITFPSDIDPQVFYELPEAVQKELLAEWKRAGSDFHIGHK

The compounds below were run against DNA polymerase iota (Homo sapiens) (UniProt Q9UNA4) (assay: qHTS for Inhibitors of Polymerase Iota: Confirmatory Assay for Cherry-picked Compounds). Conditions: Pol iota primer extension, TAMRA/BHQ fluorescence.
Excerpt: DNA polymerases, such as polymerase iota (Pol iota), are involved in DNA repair. Pol iota specifically plays an important role in translesion synthesis, where the normal high-fidelity DNA polymerases cannot proceed and DNA synthesis stalls. […] Thus, while Pol eta and most likely Pol iota's normal functions are to protect humans against the deleterious consequences of DNA damage, under certain conditions they can have deleterious effects on human health. As a consequence, small molecule inhibitors of Pol iota (identified from a high throughput replication assay) have potential therapeutic applications. A 1536-well format, fluorescence based, high-throughput screen (AID 588590) is developed in collaboration with the National Institute of Child Health & Human Development (NICHD) to screen for inhibitors of the Pol eta enzyme. This screen is used to validate the activity of the selected compounds from the primary assay against the human Pol eta. Inhibition is the desired outcome for this assay. […]
Three microliters of reagents (buffer in column 3 and 4 as negative control while 10 nM Pol iota in columns 1, 2, and 5-48) were dispensed into a 1536-well black solid-bottom plate. […] The assay plates were initially read after 0 min and again after 10 min of kinetic reaction using the PerkinElmer Viewlux reader equipped with 525 nm excitation and 598 nm emission filters.
Potency means the concentration at half of the fitted maximal effect.

| Structure (SMILES) | Potency |
| --- | --- |
| Nc1cccc2ccc([As](=O)(O)O)cc12 | inconclusive: 67 µM |
